Test results taken from US6852744B2, “Pyrrolidine derivatives and their use as chymase inhibitor” (Dainippon Pharmaceutical Co., Ltd., priority 2000, dated 2005).

Amino acid sequences for entries named in this document (tags omitted). Residues count along the entry.
UniProt P56435, 22-247 limits assumed: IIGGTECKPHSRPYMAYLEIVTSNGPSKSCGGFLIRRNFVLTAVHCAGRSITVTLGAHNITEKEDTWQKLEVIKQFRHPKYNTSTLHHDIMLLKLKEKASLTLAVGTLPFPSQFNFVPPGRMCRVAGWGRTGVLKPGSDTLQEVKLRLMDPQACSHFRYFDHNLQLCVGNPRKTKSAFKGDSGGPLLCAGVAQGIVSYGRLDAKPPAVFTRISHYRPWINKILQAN

Target: monkey chymase (Macaca fascicularis, UniProt P56435)
Assay: Monkey chymase inhibitory activity (in vitro, angiotensin I substrate)
Details: read-out: Monkey Chymase Inhibition (IC50:nM), chymase purified from monkey cheek pouch and stomach, 37° C.

| SMILES | IC50 |
| --- | --- |
| Cc1onc(C(N)=O)c1C(=O)N[C@H](C(=O)N1CCC[C@H]1C(=O)NC(Cc1ccccc1)C(=O)C(F)(F)F)C(C)C (some centres unmarked) | 68 nM |
| CCc1noc(C)c1C(=O)N[C@H](C(=O)N1CCC[C@H]1C(=O)NC(Cc1ccccc1)C(=O)C(F)(F)F)C(C)C (some centres unmarked) | 150 nM |
| Cc1onc(-c2c(F)cccc2Cl)c1C(=O)N[C@H](C(=O)N1CCC[C@H]1C(=O)NC(Cc1ccccc1)C(=O)C(F)(F)F)C(C)C (some centres unmarked) | 89 nM |
| Cc1onc(-c2c(Cl)cccc2Cl)c1C(=O)N[C@H](C(=O)N1CCC[C@H]1C(=O)NC(Cc1ccccc1)C(=O)C(F)(F)F)C(C)C (some centres unmarked) | 170 nM |
| CC(=O)c1onc(C)c1C(=O)N[C@H](C(=O)N1CCC[C@H]1C(=O)NC(Cc1ccccc1)C(=O)C(F)(F)F)C(C)C (some centres unmarked) | 76 nM |

The remaining lines, values ahead:

| IC50 | SMILES |
| --- | --- |
| 350 nM | Cc1noc(-c2ccc(C(F)(F)F)cc2)c1C(=O)N[C@H](C(=O)N1CCC[C@H]1C(=O)NC(Cc1ccccc1)C(=O)C(F)(F)F)C(C)C (some centres unmarked) |
| 120 nM | Cc1onc(-c2ccccc2Cl)c1C(=O)N[C@H](C(=O)N1CCC[C@H]1C(=O)NC(Cc1ccccc1)C(=O)C(F)(F)F)C(C)C (some centres unmarked) |
| 73 nM | Cc1onc(-c2ccccc2)c1C(=O)N[C@H](C(=O)N1CCC[C@H]1C(=O)NC(Cc1ccccc1)C(=O)C(F)(F)F)C(C)C (some centres unmarked) |
